Literature values, collected in article PMC5831081 (Biochemistry, 2017).

Test system: CYP2C9
Details: cited from earlier work

## (S)-flurbiprofen
  factor of decrease in affinity in the presence of POR: 48
